Assay results taken from publication PMC7280195, “Simple ammonium salts acting on sigma-1 receptors yield potential treatments for cancer and depression” (Scientific Reports, 2020).
Where two headings read alike, the source gives them in different places.

Sequences of proteins named here, by UniProt entry; tags and fusion partners are left off.
UniProt Q5BJF2, whole entry: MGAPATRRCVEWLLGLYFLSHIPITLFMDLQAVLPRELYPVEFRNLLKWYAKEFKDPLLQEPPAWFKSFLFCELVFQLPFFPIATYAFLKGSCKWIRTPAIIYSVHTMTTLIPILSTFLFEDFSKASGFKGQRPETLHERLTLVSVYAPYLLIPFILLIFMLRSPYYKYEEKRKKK

Molecular target: sigma-2 receptor (Homo sapiens, UniProt Q5BJF2)
Assay: Sigma-2 receptor competition binding, [3H] DTG, membranes from MCF7 cells
Settings: competition with [3H] DTG; for σ-2 R affinity pKi ± SEM (n): * = Hill slope not unity; for Ki: read-out: σ-2 R affinity Ki
[1] = tested form: ammonium salt (counterion not stated)

**Q.** Which results are given for `NC12CC3CC(CC(C3)C1)C2`?
**A.** σ-2 R affinity pKi ± SEM (n) (tested form: HCl): 5.04 ); Ki (tested form: HCl): 9.1 µM

**Q.** How did the “σ-2 R affinity pKi ± SEM (n)” value turn out when `C[N+](C)(C)C` was run?
**A.** <3 (3)

**Q.** `CCCCN(CCCC)CCCC` was tested. Which σ-2 R affinity pKi ± SEM (n) [1] did it give?
**A.** 5.5 )

**Q.** And the Ki [1]?
**A.** 3 µM
